Data from PubChem BioAssay AID1454 (National Center for Advancing Translational Sciences (NCATS), 2008).
The entries are a selection whose mix differs from that of the whole data set. Records with an inconclusive call do not appear. Active and inactive are the calls of the source. Calls come from the whole dose curve; as a rule, active = well fitted inhibition curve with a large enough effect; inconclusive = small, poorly fitted or top-dose-only effect, or effect the other way; inactive = flat fitted curve, though single readings scatter.

Test: qHTS Assay for Inhibitors of the ERK Signaling Pathway using a Homogeneous Screening Assay; Stimulation with EGF; note: nearly all actives have a fitted effect of over 55% in size;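 for activity change, negative = inhibition: plate controls were stimulated vehicle wells for no effect and unstimulated vehicle basal for full effect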
Conditions: HEK293-V1b, EGF-stimulated phospho-ERK AlphaScreen; series mostly up to 57.5 µM; activity change, negative = inhibition: at the top concentration
Potency is the fitted concentration of half-maximal effect.

SMILES	activity change, negative = inhibition	Potency
CCOC(=O)Nc1ccc([As](=O)(O)O)c(O)c1	inactive: 1.84%	
Cc1cc(SC(NC(=O)c2ccccc2)C(Cl)(Cl)Cl)nc(C(C)C)n1 (configuration not stated)	inactive: -17.2% [at 11.5 µM]	
CCOC(=O)Nc1cccc([As](=O)(O)O)c1	inactive: -9.96%	
O=P(Nc1ccccn1)(c1cccc2ccccc12)c1cccc2ccccc12	inactive: 0.76% [at 11.5 µM]	
Cc1cc(SC(NC=O)C(Cl)(Cl)Cl)ncn1 (configuration not stated)	inactive: 3.29% [at 11.5 µM]	
O=[N+]([O-])c1ccc(Nc2ccc(Oc3ccc([N+](=O)[O-])cc3[N+](=O)[O-])cc2)c([N+](=O)[O-])c1	inactive: 4.15%	
CCOC(=O)c1ccc(NC(=O)C(C)(CCl)SC)cc1 (configuration not stated)	inactive: 6.3%	
CCC(C)N(CC(C)C)C(=S)SC(NC(C)=O)C(Cl)(Cl)Cl (configuration not stated)	inactive: 7.9% [at 11.5 µM]	
Cc1c2c(nc3ccccc13)SC(C(Cl)Cl)C2 (configuration not stated)	inactive: 5.42% [at 11.5 µM]	
COc1cc(I)ccc1[As](=O)(O)O	inactive: -4.2%	
COc1ccc2nc(NP(=O)(c3ccccc3)c3ccccc3)sc2c1	inactive: -0.612% [at 11.5 µM]	
COc1ccc(N/C(=N/P(=O)(N2CCOCC2)N2CCOCC2)N2CCOCC2)cc1	inactive: 10.5%	
C[As](=O)(O)c1cccc(C(=O)O)c1	inactive: -0.831%	
O=[As](O)(c1ccc(O)cc1)c1ccccc1O	inactive: 6.94%	
Cc1ccc(OP(=O)(Nc2ccc([N+](=O)[O-])cn2)Oc2ccc(C)cc2)cc1	inactive: -7.54%	
Cc1ccc2nc3c(c(C)c2c1)CC(C(Cl)Cl)S3 (configuration not stated)	inactive: 9.43% [at 11.5 µM]	
ClCCSc1nnc(-c2cccnc2)o1	inactive: 6.38% [at 11.5 µM]	
CC(C)c1ccc(OP(=O)(Nc2ccccn2)Oc2ccccc2F)cc1 (configuration not stated)	inactive: -11.8%	
O=[N+]([O-])c1cc([N+](=O)[O-])c(-c2ccn[nH]2)s1	inactive: 1.92% [at 11.5 µM]	
CC(C)NC(=O)NP(=O)(Oc1ccccc1)Oc1ccccc1	inactive: -4.43% [at 11.5 µM]	
O=P(Nc1nccs1)(Oc1ccccc1)Oc1ccccc1	inactive: 4.99% [at 11.5 µM]	
Nc1ccccc1[As](=O)(O)c1ccccc1	inactive: 3%	
O=C(O)COc1ccc([As](=O)(O)O)cc1[N+](=O)[O-]	inactive: 0.197%	
O=[N+]([O-])CC(O)c1ccc([N+](=O)[O-])cc1 (configuration not stated)	inactive: 3.04% [at 11.5 µM]	
NC(=O)Nc1ccc([As](=O)(O)O)cc1	inactive	

SMILES	activity change, negative = inhibition	Potency
CN(C(=O)Cc1ccccc1)[C@@H]1CC[C@]2(CCCO2)C[C@H]1N1CCCC1	inactive	
CN(C(=O)Cc1ccc(Cl)c(Cl)c1)[C@@H]1CC[C@]2(CCCO2)C[C@H]1N1CCCC1	inactive: -8.19% [at 11.5 µM]	
O=C(OC1CN2CCC1CC2)c1ccc(Cl)cc1 (configuration not stated)	inactive: -0.885%	
COc1cc(C(=O)NCC2(N3CCOCC3)CCCCC2)cc(Cl)c1OC(C)C	inactive: -3.56% [at 11.5 µM]	
O=[As](O)(O)c1cccnc1	inactive: 1%	
O=[As](O)(c1cccc(O)c1)c1cccc(O)c1	inactive: 4.04%	
Nc1cccc2c([As](=O)(O)O)cccc12	inactive: -8.86%	
Cc1ccc(NCCc2c([N+](=O)[O-])cc([N+](=O)[O-])cc2[N+](=O)[O-])cc1		active: 28.2 µM
CCCOP(=S)(Nc1nc(N)cc(=O)[nH]1)OCCC	inactive: -10.3%	
CCOP(=O)(Nc1cccc2ccccc12)OCC	inactive: -13.5% [at 11.5 µM]	
COc1cc(C2NCCC3(OCCO3)C2(C)C)cc(OC)c1OC (configuration not stated)	inactive: -18.8% [at 11.5 µM]	
CCOP(=O)(Nc1ccc(C)cn1)OCC	inactive: -13%	
CC(C)(C)C(=O)NC(Sc1ncccn1)C(Cl)(Cl)Cl (configuration not stated)	inactive: -2.01%	
CC(C)/C=N\N=C(\N)N[N+](=O)[O-]	inactive: -5.82% [at 11.5 µM]	
CN(C(=O)Cc1ccc(Cl)c(Cl)c1)[C@@H]1CCCC[C@H]1N1CCCC1	inactive	
O=[As](O)(c1ccccc1Br)c1ccccc1Br	inactive: -4.31%	
CC1CCC(C(C)C)C(OP(=O)(Nc2ccccn2)c2ccccc2)C1 (configuration not stated)	inactive: -11.6% [at 11.5 µM]	
CN(C)C1(CNC(=O)c2ccc(S(C)(=O)=O)cc2)CCCCC1	inactive: -3.22%	
O=C(/C=C/c1ccccc1)OC1CN2CCC1CC2 (configuration not stated)	inactive: 2.96%	
Nc1cccc([As](=O)(O)c2ccccc2)c1	inactive: 9.27%	
O=[As](O)(c1cccs1)c1cccs1	inactive: -4.35%	
O=P(Nc1ccccn1)(c1ccc(Br)cc1)c1ccc(Br)cc1	inactive: -11.9% [at 11.5 µM]	
C[C@H]1OP(=O)(Oc2ccccc2)[C@H](O)[C@H](O)[C@H]1N=[N+]=[N-] (some centres not stated)	inactive: -8.56%	
O=P(Nc1nc2ccccc2s1)(c1ccccc1)c1ccccc1	inactive: -5.12%	
O=[As](O)(c1ccccc1)c1ccc(O)cc1	inactive: 5.33%	

SMILES	activity change, negative = inhibition	Potency
O=[N+]([O-])c1ncn(CCn2cnc([N+](=O)[O-])n2)n1	inactive: 1.07%	
CC(=O)NC(SC(=S)N(C)C)C(Cl)(Cl)Cl (configuration not stated)	inactive: -7.77% [at 11.5 µM]	
Nc1ccc([As](=O)(O)c2ccc([N+](=O)[O-])cc2)cc1	inactive: 12.9%	
C(Cc1nn[nH]n1)Cc1nn[nH]n1	inactive: -2.35% [at 11.5 µM]	
CC(C)C(=O)NC(Sc1ccccc1)C(Cl)(Cl)Cl (configuration not stated)	inactive: 4.74% [at 11.5 µM]	
C[C@@H]1C=CCP(=O)(Oc2ccccc2)O1 (some centres not stated)	inactive: -0.987%	
C[C@H]1OP(=O)(Oc2ccccc2)C[C@@H]2O[C@@H]21 (some centres not stated)	inactive: -4.45%	
CC(=O)Nc1ccc(Oc2c([N+](=O)[O-])cc([N+](=O)[O-])cc2[N+](=O)[O-])cc1	inactive: 0.0655% [at 11.5 µM]	
CC(=O)Nc1ccc([As](=O)(O)O)c(O)c1	inactive: -0.46%	
Cc1ccc(NP(=O)(Oc2cccc(C)c2)Oc2cccc(C)c2)nc1	inactive: -11.3%	
c1ccc(-c2nn[nH]n2)c(-c2nn[nH]n2)c1	inactive: 6.67% [at 11.5 µM]	
CCNC(=S)/N=C(\N)N[N+](=O)[O-]	inactive: -9.16% [at 11.5 µM]	
O=C(NC1CCS(=O)(=O)C1)NP(=S)(Oc1ccccc1)Oc1ccccc1 (configuration not stated)	inactive: -0.564% [at 11.5 µM]	
CN(C(=O)Cc1ccc(Cl)c(Cl)c1)[C@@H]1CCCC[C@@H]1N1CCCC1	inactive: 0.132% [at 11.5 µM]	
Cc1ccc(OP(=O)(Nc2ccccn2)Oc2ccc(C)cc2)cc1	inactive: -9.28% [at 11.5 µM]	
CC(=O)NC(SC(=S)N(CC(C)C)CC(C)C)C(Cl)(Cl)Cl (configuration not stated)	inactive: -1.63% [at 11.5 µM]	
CN(C)C(=O)Oc1noc2ccccc12	inactive: -7.52%	
O=c1c2cc([N+](=O)[O-])ccc2[nH]c2c([N+](=O)[O-])cc([N+](=O)[O-])cc12	inactive: 5.18% [at 11.5 µM]	
Cc1ccccc1OP(=O)(Nc1ccccn1)Oc1ccccc1C	inactive: 6.95%	
O=P(Nc1nc2ccc(Cl)cc2s1)(c1ccccc1)c1ccccc1	inactive: 11.6%	
O=C(O)c1ccccc1[As](=O)(O)O	inactive: -10%	
CC(=O)Nc1ccc([As](=O)(O)O)cc1	inactive: -0.766%	
Cc1ccc(NP(=O)(Oc2ccccc2F)Oc2ccccc2F)nc1	inactive: 6.24%	
CN(C(=O)Cc1ccc(Cl)c(Cl)c1)[C@H]1CCCC[C@@H]1N1CCCC1	inactive: -0.48% [at 11.5 µM] [middle of 5 runs]	
CCOP(=O)(Nc1ccccc1)OCC	inactive: 3.65%	

SMILES	activity change, negative = inhibition	Potency
Cc1cc(SC(NC(=O)c2ccc(F)cc2)C(Cl)(Cl)Cl)ncn1 (configuration not stated)	inactive: -0.0091% [at 11.5 µM]	
Nc1cccc2ccc([As](=O)(O)O)cc12	inactive: 5.29%	
CCN(N=Nc1nonc1N)c1nonc1N	inactive: 1.72% [at 11.5 µM]	
Cc1ccc(N/C(=N/P(=O)(N2CCOCC2)N2CCOCC2)N2CCOCC2)cc1	inactive: 0.0324% [at 11.5 µM]	
NC(=O)c1cc([N+](=O)[O-])cc([N+](=O)[O-])c1N	inactive: 2.16% [at 11.5 µM]	
Clc1ccc(Cl)c(NC2=NCC(CBr)S2)c1 (configuration not stated)	inactive: 33.7%	
CN1CCCC(OC(=O)C(c2ccccc2)c2ccccc2)C1 (configuration not stated)	inactive: 8.11% [at 11.5 µM]	
Cc1ccc(OP(=O)(Nc2nccs2)Oc2ccc(C)cc2)cc1	inactive: 2.66%	
COc1ccccc1OP(=O)(Nc1ccc(C)cn1)Oc1ccccc1OC	inactive: -2.49% [at 11.5 µM]	
O=C(NC(Sc1ccncn1)C(Cl)(Cl)Cl)c1ccccc1 (configuration not stated)	inactive: -0.84% [at 11.5 µM]	
Nc1cc(N)c2nonc2c1[N+](=O)[O-]	inactive: 9.59%	
COc1ccc(C2=NCC(CBr)S2)cc1 (configuration not stated)	inactive: 1.38% [at 11.5 µM]	
Cc1ccc(NP(=O)(Oc2ccccc2)Oc2ccccc2)nc1	inactive: -2.12% [at 11.5 µM]	
CCN(/C(=N/P(=O)(N1CCOCC1)N1CCOCC1)N1CCOCC1)c1ccc(OC)cc1	inactive: -2.18% [at 11.5 µM]	
Nc1ccc([As](=O)(O)c2ccc(N)cc2)cc1	inactive: -8.07%	
CN(C)C(=O)OCCc1n(C)cc[n+]1C	inactive: 1.46% [at 11.5 µM]	
CC(C)=N/N=C(\N)N[N+](=O)[O-]	inactive: 1.11% [at 11.5 µM]	
O=C(Nc1cc([As](=O)(O)O)ccc1O)c1ccccc1	inactive: -1.55%	
O=[N+]([O-])c1ncn(CCn2ncnc2[N+](=O)[O-])n1	inactive: -9.62% [at 11.5 µM]	
CC(C)(C)C(=O)NC(Sc1ccncn1)C(Cl)(Cl)Cl (configuration not stated)	inactive: 4.18%	
O=C(O)CNc1ccc([As](=O)(O)O)cc1	inactive: 4.95%	
O=[N+]([O-])c1cccc(NC2=NCC(CBr)S2)c1 (configuration not stated)	inactive: -1.5%	
